Chains of the proteins cited; added tags and fusions are not shown.
UniProt P42336, whole entry: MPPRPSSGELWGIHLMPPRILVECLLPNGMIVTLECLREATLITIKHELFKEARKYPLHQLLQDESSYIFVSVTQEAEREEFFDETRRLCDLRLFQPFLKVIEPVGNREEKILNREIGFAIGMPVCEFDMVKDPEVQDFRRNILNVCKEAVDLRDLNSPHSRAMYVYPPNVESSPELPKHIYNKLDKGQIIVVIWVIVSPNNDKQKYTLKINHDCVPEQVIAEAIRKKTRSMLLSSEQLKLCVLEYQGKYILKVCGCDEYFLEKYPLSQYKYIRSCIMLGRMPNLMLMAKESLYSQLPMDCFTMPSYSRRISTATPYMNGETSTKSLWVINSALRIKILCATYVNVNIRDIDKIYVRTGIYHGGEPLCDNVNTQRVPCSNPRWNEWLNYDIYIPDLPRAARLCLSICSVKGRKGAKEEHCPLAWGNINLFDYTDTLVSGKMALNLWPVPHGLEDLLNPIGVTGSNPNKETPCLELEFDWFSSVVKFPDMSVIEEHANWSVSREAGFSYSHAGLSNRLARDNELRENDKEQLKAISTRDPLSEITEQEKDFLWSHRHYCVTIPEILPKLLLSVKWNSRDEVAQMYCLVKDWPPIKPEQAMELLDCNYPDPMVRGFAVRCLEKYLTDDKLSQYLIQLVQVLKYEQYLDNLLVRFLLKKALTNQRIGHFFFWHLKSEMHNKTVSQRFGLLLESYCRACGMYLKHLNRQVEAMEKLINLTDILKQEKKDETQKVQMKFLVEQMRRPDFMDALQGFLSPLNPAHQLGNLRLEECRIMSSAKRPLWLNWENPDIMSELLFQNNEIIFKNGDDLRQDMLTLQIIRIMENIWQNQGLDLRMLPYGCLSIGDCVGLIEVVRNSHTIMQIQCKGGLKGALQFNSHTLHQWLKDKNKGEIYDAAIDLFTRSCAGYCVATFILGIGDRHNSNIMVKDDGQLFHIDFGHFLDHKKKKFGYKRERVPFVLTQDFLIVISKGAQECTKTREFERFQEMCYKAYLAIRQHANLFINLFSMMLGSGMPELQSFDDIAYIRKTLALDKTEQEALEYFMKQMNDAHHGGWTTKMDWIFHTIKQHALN

According to patent US9295673B2 (dated 2016):

Target: PI3K α (Homo sapiens, UniProt P42336)
Test: PI 3-Kinase (human) HTRF assay, PI3K α
Details: read-out: PI3K α IC50

Q: With Nc1nc2cc(-c3ccc4ncc(C(=O)NC5CCC(O)CC5)n4c3)ccc2o1 (stereo not shown) [Compound 143] as the compound, how does the IC50 read?
A: < 100 nM
